Measured values taken from ChEMBL document CHEMBL4321882, “α-Helix-Mimicking Sulfono-γ-AApeptide Inhibitors for p53-MDM2/MDMX Protein-Protein Interactions” (J Med Chem, 2020).

By UniProt entry, the sequences of proteins in these tests, tags left out.
UniProt Q00987, whole entry: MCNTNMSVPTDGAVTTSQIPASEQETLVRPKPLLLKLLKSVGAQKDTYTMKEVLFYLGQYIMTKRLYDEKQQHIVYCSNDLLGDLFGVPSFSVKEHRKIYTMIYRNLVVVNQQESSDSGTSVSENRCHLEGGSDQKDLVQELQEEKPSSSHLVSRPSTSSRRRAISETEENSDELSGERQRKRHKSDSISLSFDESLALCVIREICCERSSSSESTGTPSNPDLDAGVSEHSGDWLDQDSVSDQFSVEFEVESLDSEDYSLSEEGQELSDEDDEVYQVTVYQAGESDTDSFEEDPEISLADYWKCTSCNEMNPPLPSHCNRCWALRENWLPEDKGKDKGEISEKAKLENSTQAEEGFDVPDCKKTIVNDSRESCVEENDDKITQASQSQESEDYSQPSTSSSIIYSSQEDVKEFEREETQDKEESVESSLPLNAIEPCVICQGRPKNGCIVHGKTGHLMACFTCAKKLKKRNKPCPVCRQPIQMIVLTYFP

Molecular target: E3 ubiquitin-protein ligase Mdm2 (Homo sapiens, UniProt Q00987)
Test: Binding affinity to human MDM2 expressed in Escherichia coli expression system by using (FITC)-labeled p53 peptide based fluorescence polarization competitive assay

## CC(=O)N[C@@H](CC(C)C)CN(CC(=O)N[C@@H](Cc1ccccc1)CN(CC(=O)N[C@@H](CCC(=O)O)CN(CC(=O)N[C@@H](C)CN(CC(=O)N[C@@H](CCCCN)CN(CC(=O)N[C@@H](CC(C)C)CN(CC(=O)N[C@@H](C)CN(CC(N)=O)S(C)(=O)=O)S(=O)(=O)CC(C)C)S(C)(=O)=O)S(C)(=O)=O)S(C)(=O)=O)S(C)(=O)=O)S(=O)(=O)c1ccc(Cl)cc1
  Kd: > 5 µM
